Patent publication US4263305A, “Novel pyridiniumaldoximes having micellar characteristics” (dated 1981)

Experiments:
[1] = Solubility determination: molar absorptivities; settings: 295 nm; ethanol/pH 9.3 carbonate buffer (50:50 v/v)
[2] = Critical micelle concentration (cmc) / micellar concentration; settings: for critical micelle concentration: carbonate buffer, 25°±0.2° C., Raman peak of water at 478 nm; for cmc in the reaction medium: carbonate-bicarbonate buffer, pH 9.3, μ=0.5
[3] = Kinetics of reaction of pyridiniumaldoximes with diethyl p-nitrophenyl phosphate (first order rate constants, half-lives); settings: for concentration-rate profile (observed first order rate constant vs concentration): carbonate-bicarbonate buffer; for factor of rate increase on addition of CTAB: CTAB 3×10^-3 M; for kobs'/Ox^- / kobs × 10^4, observed rate constant / kobs' × 10^4, observed rate constant corrected for hydrolysis: oxime 2 × 10^-3 M; for kobs × 10^4, observed rate constant / kobs' × 10^4, observed rate constant corrected for hydrolysis: printed values × 10^4
[4] = pKa determination, spectrophotometric; settings: 25° C.
[5] = micellar model, from slope and intercept of plot, pH 9.3, μ=0.5

## CCCCCCC[n+]1cccc(C=NO)c1
[1]
  molar absorptivity ε295: 12100 M⁻¹ cm⁻¹
[2]
  critical micelle concentration: 1.95 mM
  cmc in the reaction medium: 2 mM
[3]; (A) 4 × 10^-2 alone
  t1/2 of diethyl p-nitrophenyl phosphate: 0.667 h
[3]; (A) 4 × 10^-4 alone
  t1/2 of diethyl p-nitrophenyl phosphate: 51.5 h
[3]; (A) 9.1 × 10^-4 alone
  t1/2 of diethyl p-nitrophenyl phosphate: 37.3 h
[3]; pH 9.3, μ=0.5
  concentration-rate profile (observed first order rate constant vs concentration): linear increase in the observed first order rate constant with increasing concentration
[3]; concentration range 10^-4 - 4×10^-2 M, carbonate-bicarbonate buffer pH 9.3, μ=0.5, 25°C
  bimolecular rate constant, k2'=kobs/[A]: 1.2×10^-2 ±0.0008 M^-1 sec^-1

## CCCCCCCCCCCCCCCC[N+](C)(C)C.[Br-]
[2]; 3×10^-3 M CTAB added to 1×10^-3 M 1-n-dodecyl-3-pyridiniumaldoxime iodide
  additional micellar concentration provided by CTAB: approximately 5×10^-4 M
[2]; footnote to Table III
  CMC of CTAB: 2.5 mM

## CCCCCCCCCCCC[n+]1cccc(C=NO)c1
[4]; oxime 2 × 10^-3 M, above CMC, 2000 µM
  pKa ± S. E.: 9.34
[4]; oxime 5 × 10^-5 M, 3 × 10^-3 M Brij added, 50 µM
  pKa ± S. E.: 9.65
[4]; oxime 5 × 10^-5 M, 3 × 10^-3 M CTAB added, 50 µM
  pKa ± S. E.: 9.15
[4]; oxime 5 × 10^-5 M, below CMC, 50 µM
  pKa ± S. E.: 9.18
[1]
  molar absorptivity ε295: 12900 M⁻¹ cm⁻¹
[2]; 3×10^-3 M CTAB, oxime 1×10^-3 M
  effect of added CTAB on micellar volume: more than doubles the micellar volume
[2]; CTAB added, oxime 3×10^-3 M
  effect of added CTAB on micellar volume: percentage increase in micellar volume upon the addition of CTAB is less
[2]
  critical micelle concentration: 0.63 mM
  cmc in the reaction medium: 0.6 mM
[2]; solution containing 1×10^-3 M 1-n-dodecyl-3-pyridiniumaldoxime iodide
  micellar concentration: approximately 4×10^-4 M
[3]
  rate of reaction at the cmc: observed rate increase was coincident with the formation of micelles
[3]; (B) 1.4 × 10^-3 alone
  t1/2 of diethyl p-nitrophenyl phosphate: 0.467 h
[3]; (B) 2 × 10^-3 alone
  t1/2 of diethyl p-nitrophenyl phosphate: 0.167 h
[3]; (B) 6 × 10^-4 alone
  t1/2 of diethyl p-nitrophenyl phosphate: 41.5 h
[3]; pH 9.3, μ=0.5
  concentration-rate profile (observed first order rate constant vs concentration): marked deviation from linearity in the concentration-rate profile
[3]; concentration of B 6×10^-4 M, carbonate-bicarbonate buffer pH 9.3, μ=0.5, 25°C
  bimolecular rate constant: 0.015 M⁻¹ s⁻¹
[3]; concentrations of B ≤ 2×10^-4 M, pH 9.3, μ=0.5
  bimolecular rate constant (compared with A): equal to that of A within experimental error
[3]; different pH, micellar medium
  quotient of k'obs and the oximate ion concentration: a constant
[3]; [5]
  K/N (K binding constant, N aggregation number): 56 M⁻¹
  km, reaction rate constant in the micellar phase: 0.0106 s⁻¹
[3]; oxime 1×10^-3 M
  factor of rate increase on addition of CTAB: 3
[3]; oxime 1×10^-4 M
  factor of rate increase on addition of CTAB: 82
[3]; oxime 3×10^-3 M
  factor of rate increase on addition of CTAB: less than 2
[3]; pH 8.3
  kobs'/Ox^-: 1.32
  kobs × 10^4, observed rate constant: 2.12
  kobs' × 10^4, observed rate constant corrected for hydrolysis: 2.12
[3]; pH 9.3
  kobs'/Ox^-: 0.69
  kobs × 10^4, observed rate constant: 6.60
  kobs' × 10^4, observed rate constant corrected for hydrolysis: 6.59
[3]; pH 10.6
  kobs'/Ox^-: 0.67
  kobs × 10^4, observed rate constant: 12.7
  kobs' × 10^4, observed rate constant corrected for hydrolysis: 12.6
[3]; pH 11.5
  kobs'/Ox^-: 0.68
  kobs × 10^4, observed rate constant: 14.4
  kobs' × 10^4, observed rate constant corrected for hydrolysis: 13.4
[3]; pH 12.2
  kobs'/Ox^-: 0.77
  kobs × 10^4, observed rate constant: 17.8
  kobs' × 10^4, observed rate constant corrected for hydrolysis: 15.3
